## Apparent affinities of Ab-14 variants for a coronavirus HR2 peptide

The measurements come from Li et al. 2023 (doi:10.1038/s41467-023-39022-2) through the FLAb antibody collection.

All variants were tested on one target, the spike HR2 peptide PDVDLGDISGINAS (SARS-CoV-2).

Parent: Ab-14, a human scFv built as VH, three GGGGS repeats, VL. Only the CDRs of the light chain vary.
VH: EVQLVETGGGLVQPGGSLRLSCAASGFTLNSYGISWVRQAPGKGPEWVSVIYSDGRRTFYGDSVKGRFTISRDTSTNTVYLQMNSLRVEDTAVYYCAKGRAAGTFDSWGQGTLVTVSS
VL: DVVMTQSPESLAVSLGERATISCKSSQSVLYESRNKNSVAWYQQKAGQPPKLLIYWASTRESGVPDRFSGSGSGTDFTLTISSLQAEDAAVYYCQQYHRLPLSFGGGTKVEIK

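The starting antibody came from a phage panning campaign against this peptide. This is the validation round: designs drawn from the data on random variants, tested in the same kind of assay. Group labels follow the data file (Ctrl: baseline library sampled from a position-specific scoring matrix, with some repeated check sequences; En: ensemble of fine-tuned language models; GP: Gaussian process model; HC: hill climbing; Gen: genetic algorithm; Gibbs: Gibbs sampling; a sequence that several methods proposed may carry one label only). Affinity was read by AlphaSeq, a pooled yeast mating assay with surface-displayed partners. Binding brings cells together so that they mate, and sequencing counts the barcode pairs among the diploids. Each replicate has its own calibration line, from reference interactions of the BCL2 family. The assay was run in six technical replicates.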

The parent's light chain CDRs are KSSQSVLYESRNKNSVA, WASTRES, QQYHRLPLS; each variant's own CDRs replace them letter for letter. Scale: log10 of Kd in nM, estimated from mating counts; low values are strong binders. Averages over replicates are reported, and they cover detected replicates only. "no signal" means that the variant was in the library but no mating with the target was seen in any replicate; the authors take this as a sign of poor binding, and no number exists. The authors' rule: three or more of the six replicates give a measured affinity, fewer mean a poor binder. As a blank, each scFv also met three strains without target: over all light chain designs, 4% of these pairings were detected, typically at 2.64 and seldom below 1.59. Also given: how often the same scFv was detected with the empty control strains. The range of this assay differs from that of the first round, and the authors advise against merging the two.

{"CDR-L1": "QIGMLLNFESQKINNVA", "CDR-L2": "QMETRVV", "CDR-L3": "QQYDRLPLI", "group": "En_Gen", "log10 Kd (nM), mean": "1.13", "detected": "6/6", "signal with controls": "1/18"}
{"CDR-L1": "NLMSHQSELSVWKYSIA", "CDR-L2": "EASIRLS", "CDR-L3": "QQYFRLPLA", "group": "En_Gibbs", "log10 Kd (nM), mean": "0.69", "detected": "6/6", "signal with controls": "0/18"}
{"CDR-L1": "KVSQSELYESRNKNSVA", "CDR-L2": "EASLRES", "CDR-L3": "QQYHRLPLS", "group": "GP_Gen", "log10 Kd (nM), mean": "0.45", "detected": "6/6", "signal with controls": "0/18"}
{"CDR-L1": "KISMLSENELKNRNSVA", "CDR-L2": "ELVTRMN", "CDR-L3": "QQYNRLPLS", "group": "En_Gen", "log10 Kd (nM), mean": "0.53", "detected": "6/6", "signal with controls": "1/18"}
{"CDR-L1": "KSSQSELYEDRNKNSVA", "CDR-L2": "NASQRES", "CDR-L3": "QQYHRLPLS", "group": "GP_Gen", "log10 Kd (nM), mean": "-0.19", "detected": "6/6", "signal with controls": "1/18"}
{"CDR-L1": "KLSQSMLYEERNKNNVA", "CDR-L2": "SASHREW", "CDR-L3": "QQYHRLPLS", "group": "GP_Gibbs", "log10 Kd (nM), mean": "-0.37", "detected": "6/6", "signal with controls": "1/18"}
{"CDR-L1": "MISNVMNTLTRQGNNVA", "CDR-L2": "DLQNRED", "CDR-L3": "QQYFRLPLS", "group": "En_Gen", "log10 Kd (nM), mean": "1.28", "detected": "6/6", "signal with controls": "2/18"}
{"CDR-L1": "KVQQSVLYESRNKNSVA", "CDR-L2": "HASTRED", "CDR-L3": "QQYHRLPLS", "group": "GP_HC", "log10 Kd (nM), mean": "-0.04", "detected": "6/6", "signal with controls": "0/18"}
{"CDR-L1": "KIGMTLNMLEHKQNNVA", "CDR-L2": "DLVERVN", "CDR-L3": "QQYFRLPLS", "group": "En_Gen", "log10 Kd (nM), mean": "0.22", "detected": "6/6", "signal with controls": "1/18"}
{"CDR-L1": "TISGMANYESTNKNSVA", "CDR-L2": "ELTTRGS", "CDR-L3": "QQYERLPLS", "group": "En_HC", "log10 Kd (nM), mean": "0.49", "detected": "6/6", "signal with controls": "0/18"}
{"CDR-L1": "TIGAQLMYGMRNRSNVA", "CDR-L2": "EVSERLN", "CDR-L3": "QQYDRLPLL", "group": "En_Gen", "log10 Kd (nM), mean": "2.00", "detected": "6/6", "signal with controls": "2/18"}
{"CDR-L1": "KLSMSYRYASQEKNSIA", "CDR-L2": "EMSTREE", "CDR-L3": "QSYHRLPLS", "group": "En_HC", "log10 Kd (nM), mean": "0.73", "detected": "6/6", "signal with controls": "3/18"}
{"CDR-L1": "HSSESVLYESRNGNSVA", "CDR-L2": "NASTREK", "CDR-L3": "QQYHRLPLS", "group": "GP_HC", "log10 Kd (nM), mean": "0.09", "detected": "6/6", "signal with controls": "0/18"}
{"CDR-L1": "KSSESVLYTSRNKNDVA", "CDR-L2": "GASTRES", "CDR-L3": "QQYHRTPLD", "group": "Ctrl", "log10 Kd (nM), mean": "1.89", "detected": "1/6", "signal with controls": "0/18"}
{"CDR-L1": "KFSQSVLGETRNYNSVA", "CDR-L2": "WASIRES", "CDR-L3": "QQYDRLPLA", "group": "Ctrl", "log10 Kd (nM), mean": "no signal", "detected": "0/6", "signal with controls": "0/18"}
{"CDR-L1": "KVSEFMRGLLSKQDSIA", "CDR-L2": "DNVTRNN", "CDR-L3": "QQYDRLPLS", "group": "En_Gen", "log10 Kd (nM), mean": "3.39", "detected": "2/6", "signal with controls": "2/18"}
{"CDR-L1": "KIGMTLNQLMHQKNNVA", "CDR-L2": "DLVQREN", "CDR-L3": "QQYFRLPLS", "group": "En_Gen", "log10 Kd (nM), mean": "0.90", "detected": "6/6", "signal with controls": "0/18"}
{"CDR-L1": "KLSMSVLDESRNKNSVA", "CDR-L2": "WASTRES", "CDR-L3": "QQYHRLPLS", "group": "Ctrl", "log10 Kd (nM), mean": "0.84", "detected": "6/6", "signal with controls": "2/18"}
{"CDR-L1": "NFSYALFAEDAKKKSIA", "CDR-L2": "ENTVTEY", "CDR-L3": "QQYAKLPLT", "group": "En_Gibbs", "log10 Kd (nM), mean": "0.86", "detected": "6/6", "signal with controls": "0/18"}
{"CDR-L1": "KSSYSLLGESRNKNSVA", "CDR-L2": "WASTRES", "CDR-L3": "QQYHHLPLS", "group": "Ctrl", "log10 Kd (nM), mean": "1.09", "detected": "6/6", "signal with controls": "0/18"}
{"CDR-L1": "KVSQSQLYEDRNKNSVA", "CDR-L2": "NASQRES", "CDR-L3": "QQYHRLPLS", "group": "GP_Gen", "log10 Kd (nM), mean": "0.12", "detected": "6/6", "signal with controls": "0/18"}
{"CDR-L1": "KLSGLMQSSKFAKNNVA", "CDR-L2": "ENNTRED", "CDR-L3": "QQYDRLPLS", "group": "En_Gen", "log10 Kd (nM), mean": "4.18", "detected": "1/6", "signal with controls": "0/18"}
{"CDR-L1": "KLYQATEMTSRMRNNVA", "CDR-L2": "DLNERER", "CDR-L3": "QQYFRLPLS", "group": "En_HC", "log10 Kd (nM), mean": "0.12", "detected": "6/6", "signal with controls": "0/18"}
{"CDR-L1": "KLSQSQLYLSRNMNAVA", "CDR-L2": "NASQRMS", "CDR-L3": "QQYHRLPLS", "group": "GP_Gibbs", "log10 Kd (nM), mean": "-0.46", "detected": "6/6", "signal with controls": "4/18"}
{"CDR-L1": "TIGPMLMTESRNKNNVA", "CDR-L2": "GMQTRES", "CDR-L3": "QQYHRLPLS", "group": "En_HC", "log10 Kd (nM), mean": "-0.33", "detected": "6/6", "signal with controls": "3/18"}
{"CDR-L1": "LFSQSVLYESRNKNSVA", "CDR-L2": "SASTRES", "CDR-L3": "QQYHMLPLS", "group": "Ctrl", "log10 Kd (nM), mean": "0.06", "detected": "6/6", "signal with controls": "2/18"}
{"CDR-L1": "KLSMITGHMSTEKNNVA", "CDR-L2": "EMVTREN", "CDR-L3": "QQYNRLPLS", "group": "En_Gen", "log10 Kd (nM), mean": "1.77", "detected": "4/6", "signal with controls": "0/18"}
{"CDR-L1": "NFSQMVLTGSTLKNSVA", "CDR-L2": "QASTREE", "CDR-L3": "QQYHRLPLI", "group": "En_HC", "log10 Kd (nM), mean": "0.34", "detected": "6/6", "signal with controls": "0/18"}
{"CDR-L1": "AFSGSHLYESRNQNSVA", "CDR-L2": "EASTRCD", "CDR-L3": "QQYHRLPLS", "group": "GP_Gibbs", "log10 Kd (nM), mean": "-0.03", "detected": "6/6", "signal with controls": "0/18"}
{"CDR-L1": "TLGTSTLEESRNKNSVA", "CDR-L2": "EMSLREE", "CDR-L3": "QSYNRLPLS", "group": "En_HC", "log10 Kd (nM), mean": "1.75", "detected": "6/6", "signal with controls": "1/18"}
{"CDR-L1": "MISQLYNMGQFAINSVA", "CDR-L2": "QAETRCN", "CDR-L3": "QQYDRLPLE", "group": "En_Gen", "log10 Kd (nM), mean": "1.53", "detected": "4/6", "signal with controls": "0/18"}